# AlphaSeq binding of Ab-95 light chain variants to a spike HR2 peptide

Target peptide (SARS-CoV-2 spike, HR2 region): PDVDLGDISGINAS

Parent scFv Ab-95: VH joined to VL by a (GGGGS)3 linker. Changes lie in the light chain CDRs alone.
VH: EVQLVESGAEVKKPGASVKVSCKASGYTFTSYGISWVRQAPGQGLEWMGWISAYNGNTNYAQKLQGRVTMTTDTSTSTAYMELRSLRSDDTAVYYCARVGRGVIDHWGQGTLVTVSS
VL: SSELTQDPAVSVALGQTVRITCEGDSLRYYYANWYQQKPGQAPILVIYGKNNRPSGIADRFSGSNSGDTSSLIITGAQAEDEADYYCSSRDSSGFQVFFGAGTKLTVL

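The parent was found by panning a naive human phage display library on the peptide. AAYL52 was designed without a model: most single CDR substitutions and a random sample of double and triple ones. Affinity was read by AlphaSeq, a pooled yeast mating assay with surface-displayed partners. Binding brings cells together so that they mate, and sequencing counts the barcode pairs among the diploids. The ratio of observed to expected reads was calibrated, replicate by replicate, on BCL2-family standards whose Kd was known from biolayer interferometry. There are three technical replicates.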

The parent's light chain CDRs are EGDSLRYYYAN, GKNNRPS, SSRDSSGFQVF; each variant's own CDRs replace them letter for letter.
Affinities are written as log10 Kd with Kd in nM; a lower number is a better binder.
Where no diploid with the target was found in that replicate, the entry reads "ND": below detection, most likely a poor binder, though not proof of it.
Empty control strains, which show no peptide, gave a signal in 28% of pairings with library AAYL52; the median was 3.91 and 95% of these signals were weaker than 2.90. No background was subtracted. The control count says in how many pairings with the empty strains this scFv gave a signal, with their mean in brackets.
Parent in this assay: reference entry 2.31, copy in this library 2.25.

CDR-L1,CDR-L2,CDR-L3,"log10 Kd, replicates",signal with controls
EGDSLRYYYAA,GKNNRPS,SSRDSSGFPVA,ND ND ND,2 of 9 (3.85)
EGLSLRYYYAN,GKNNRCS,SSADSSGFQVF,3.67 3.67 ND,4 of 9 (4.43)
EGVSLRYYHAN,GHNNRPS,SSRDSSGFQVF,1.83 1.75 1.18,5 of 9 (4.09)
ECDSLRYYYAN,GKNNRPS,SSRPSSGFQAF,3.46 3.16 1.81,2 of 9 (3.37)
EGDNLRYYYHN,GKNNAPS,SSRDSSGFQVF,ND ND ND,1 of 9 (1.99)
EGDSLREYYAN,PKNDRPS,SSRDSSGFQVF,ND 4.38 4.10,3 of 9 (3.87)
ECDSLRYYYAN,GKNNRPS,NSRDHSGFQVF,3.13 3.46 3.10,5 of 9 (4.37)
AGDSLRYKYAN,GKNNRPM,SSRDSSGFQVF,1.49 1.29 1.03,4 of 9 (4.40)
EGDSNYYYYAN,GKNNRPS,SSRDSSAFQVF,ND ND ND,2 of 9 (4.65)
EGDSGRYYVAN,GKNNRPS,SSRDSSGFVVF,4.57 4.34 3.56,2 of 9 (4.01)
EGLSLRYYYAN,GKGNRPS,SSRDSMGFQVF,2.78 2.54 2.64,4 of 9 (3.80)
EGESLRYYYAN,GKNNRPS,SSGDSSGFQVC,2.22 1.93 2.39,3 of 9 (3.78)
EGDSLRYYYAN,QKNNRPA,SSRYSSGFQVF,3.54 ND ND,2 of 9 (3.55)
EGDSLRYYYAN,GKNNRCS,SSRDESGFQFF,ND 3.77 2.03,2 of 9 (3.19)
EGDSLNYYYAN,GKNNRPS,SSTDSSGHQVF,ND ND 4.06,0 of 9
EGPSLRYYYAN,GKNNFPS,SSRDSSGNQVF,3.27 ND ND,4 of 9 (4.20)
EGDSLRYYYAN,GKNNRPS,SMRDSSGFKVY,4.55 5.21 ND,2 of 9 (3.89)
EGDSHRYYYAN,GTNNRPS,SSRDSIGFQVF,ND ND 3.58,2 of 9 (3.45)
EGDSMRYYYAN,GKNNRQS,ISRDSSGFQVF,4.96 5.07 4.00,2 of 9 (4.55)
EGDSLRYYYAN,GKNNRPL,SSADTSGFQVF,5.09 ND 2.80,4 of 9 (3.84)
EGDSLRYYYAN,GCNNRPN,SSRDSSGFQVH,3.89 3.90 4.30,2 of 9 (3.27)
EGKSLYYYYAN,GKTNRPS,SSRDSSGFQVF,4.09 4.00 ND,2 of 9 (3.48)
EGDELRYYYAN,GKNNRPS,SSRTSSGLQVF,ND 5.20 ND,3 of 9 (4.21)
EGDSLRYYYAN,GKNNDSS,SSRDSQGFQVF,5.09 ND ND,4 of 9 (4.01)
EIDSLRYYYAN,GKNNRPS,SIRDSSGFQVT,3.11 ND 3.10,0 of 9
EGNSLRYYTAN,GKNNRPS,SSRDSSGFQVA,1.41 2.11 1.49,0 of 9
EGDSLQYYYAN,AKNNRPS,SSIDSSGFQVF,4.01 ND ND,4 of 9 (3.64)
EGDSLRYNYAN,GKNCRPS,SSRDSTGFQVF,0.85 0.92 0.30,1 of 9 (4.65)
EGDSLRMYTLN,GKNNRPS,SSRDSSGFQVF,5.23 5.35 4.42,3 of 9 (3.94)
EGDSFRNYYAN,GKNNRPS,SSRDSSGFQYF,3.34 3.32 4.04,5 of 9 (4.24)
EGDSWRYYYAN,GKNNRPS,SSRDSSKFQLF,ND 4.21 ND,2 of 9 (3.25)

The 2 strongest on average among those seen in every replicate, once more:

| CDR-L1 | CDR-L2 | CDR-L3 | log10 Kd, replicates | signal with controls |
|---|---|---|---|---|
| EGDSLRYNYAN | GKNCRPS | SSRDSTGFQVF | 0.85 0.92 0.30 | 1 of 9 (4.65) |
| AGDSLRYKYAN | GKNNRPM | SSRDSSGFQVF | 1.49 1.29 1.03 | 4 of 9 (4.40) |

Data: MIT Lincoln Laboratory AlphaSeq set, Engelhart et al. 2022, doi:10.1038/s41597-022-01779-4, as distributed in FLAb.